## AlphaSeq binding of Ab-14 heavy chain variants to a spike HR2 peptide

Target: peptide PDVDLGDISGINAS, taken from heptad repeat 2 (HR2) of SARS-CoV-2 spike.

Parent scFv Ab-14: VH joined to VL by three GGGGS repeats. Changes lie in the heavy chain CDRs alone.
VH: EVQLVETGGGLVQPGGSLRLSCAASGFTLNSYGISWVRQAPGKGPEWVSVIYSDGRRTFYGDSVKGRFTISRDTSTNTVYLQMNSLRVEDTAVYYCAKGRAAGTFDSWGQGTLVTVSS
VL: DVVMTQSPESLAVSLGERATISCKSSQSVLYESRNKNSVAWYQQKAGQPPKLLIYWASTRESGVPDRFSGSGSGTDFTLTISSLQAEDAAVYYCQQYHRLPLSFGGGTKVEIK

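Phage display of a naive human antibody library on the peptide gave the parent. This is the validation round: designs drawn from the data on random variants, tested in the same kind of assay. Their group label is 14H_Rand (Rand: our label for a block that the file lists under HC and that is probably the random mutants of the ten best first-round binders). AlphaSeq pools MATa yeast showing the antibodies with MATalpha yeast showing the peptide. Pairs that bind mate more often; barcode pairs of the diploids are counted by sequencing. The ratio of observed to expected reads was calibrated, replicate by replicate, on BCL2-family standards whose Kd was known from biolayer interferometry. Mating was done six times.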

The parent's heavy chain CDRs are GFTLNSYGIS, VIYSDGRRTFYGDSVK, GRAAGTFDS; each variant's own CDRs replace them letter for letter.
The read-out is the apparent dissociation constant on a log10 scale (nM): the lower, the stronger.
A mean of the replicates is given; it leaves out those without a signal.
Where no diploid with the target was found in that replicate, the entry reads "n.d.": below detection, most likely a poor binder, though not proof of it.
Three control strains display no target. For all heavy chain designs, 1% of the pairings with them gave a signal, with a median of 2.08 and one signal in twenty below 0.84, so weak values seen in few replicates may be background. For each scFv, signals with the empty controls are counted beside the result, with their mean in brackets.
Values of this round are not directly comparable with the first-round values of the same sequences.
The authors averaged sequences with at least three values out of six and counted those with two or fewer as poor binders.
Of ten entries with the parent sequence, four were seen in most replicates (averages 0.34 to 2.37), three in one and three in none, so single entries are noisy.

CDR-H1,CDR-H2,CDR-H3,log10 Kd (nM) by replicate,mean log10 Kd (nM),signal with controls
GFTLDSYEIS,VIYSDGRRTFYGDSVK,GRAAGTALH,n.d. n.d. n.d. n.d. n.d. n.d.,n.d.,0/18
GFTCNEEGIS,VIYSDGRRRKYGDSVK,GRAAVTFDQ,n.d. n.d. n.d. n.d. n.d. n.d.,n.d.,0/18
GFTLDSYGIW,VICSDGRRTFYGDSVK,GRAAGTAAS,2.43 n.d. n.d. 4.53 n.d. n.d.,3.48,0/18
GFTLNQYGIS,VIYSDGRRTFYSRSVK,GRAAGFFDK,n.d. n.d. n.d. n.d. n.d. n.d.,n.d.,0/18
GFQLNSWQIS,VIYADGRRTFYGDSVK,GRGAGTNKS,n.d. n.d. n.d. n.d. n.d. n.d.,n.d.,0/18
GFTLNEYGIS,VIYSDGRRTFQGDSAK,GRAAVTFDQ,n.d. n.d. n.d. n.d. n.d. n.d.,n.d.,0/18
GFTLNSYGIS,VIMSDGRRTFYSDSVK,GRAGGTFDW,n.d. n.d. n.d. n.d. n.d. n.d.,n.d.,0/18
GFTLNSYGAS,VIYSDGRRTFYSDSVK,GRAGGTFDS,n.d. n.d. n.d. n.d. n.d. n.d.,n.d.,0/18
GFDINSYGIS,VIYSDGRRKFYGDSVK,GRAAGWFWS,n.d. n.d. n.d. n.d. n.d. n.d.,n.d.,1/18 (2.14)
GFDLNSYGIS,VIMSDGRRTFYGLSVK,GRAAGWFNS,n.d. n.d. n.d. n.d. n.d. n.d.,n.d.,0/18
GFTLNSYGIS,VIYSDGRYTFYDDSVK,GQLAGTFDR,n.d. n.d. n.d. n.d. n.d. n.d.,n.d.,0/18
GFTLNQYGIS,VIYSDGRRTFYSKSVK,GRAAGFFDS,n.d. n.d. n.d. n.d. n.d. n.d.,n.d.,0/18
GFDLNSYGIS,VIYSDGRRTFYGDSVK,GRIAGWFNS,n.d. n.d. n.d. n.d. n.d. n.d.,n.d.,0/18
KFTLGSYGIS,VIYADGRRTFYGDSVK,GRAAGQNKS,n.d. n.d. n.d. n.d. n.d. n.d.,n.d.,0/18
GSTLNSYGIS,VIYSDGRRTFYDDSVK,GQLAGTFDS,1.57 1.68 n.d. 2.74 1.09 n.d.,1.77,0/18
GFTLTDNGIS,VIYSRGRRTFYGDSVK,GRSALTFIS,n.d. n.d. n.d. n.d. n.d. n.d.,n.d.,1/18 (0.58)
GFDLNSYGIS,VIYSDGRRTFYGDSVK,GRANVWFNS,n.d. n.d. n.d. n.d. n.d. n.d.,n.d.,0/18
GPTLNSYGHS,VMYADGRRTFYGDSVK,GRAAGTNKS,n.d. n.d. 0.59 n.d. n.d. n.d.,0.59,1/18 (1.72)
GFTLNDYGIS,VIYSDGRYTQYIDEVK,GTPAGTFDS,n.d. n.d. n.d. n.d. n.d. n.d.,n.d.,1/18 (2.69)
GFTLNEYGIS,VIYSDGRRTFYTDSVK,GRFAGTFDV,n.d. n.d. n.d. -0.25 n.d. n.d.,-0.25,0/18
GFTLNDYGIS,VIYSDGRWTFYGDSVK,GRIALTFIS,n.d. n.d. n.d. n.d. n.d. n.d.,n.d.,0/18
GFDLNSYGVS,VIYSDGRRTFYGDSVK,WRAAGAFNS,n.d. n.d. n.d. n.d. 4.28 n.d.,4.28,1/18 (2.01)
GFTLNPYGIS,VIYSDGRRTQYIDSVK,GRCAGHFDS,n.d. n.d. n.d. n.d. n.d. n.d.,n.d.,0/18
GFTLNSYGWL,VIYSTGRRTFYSDSVK,GRAGGTFDS,n.d. n.d. n.d. n.d. n.d. n.d.,n.d.,0/18
GFTLVSYGIS,VIYSDGRRTFYDDSVK,GKLAGNFDS,n.d. n.d. n.d. n.d. n.d. n.d.,n.d.,0/18
GKTLNDYAIS,VIYSDGRRTQYIDSVK,GRAAGTFDS,2.46 n.d. n.d. 2.08 0.94 n.d.,1.83,0/18
GFDLNSYGIS,VIYSDGKRTFYGDSVK,GRAAGWFNS,n.d. n.d. n.d. n.d. n.d. n.d.,n.d.,0/18
GFTLVDYIIS,VIYSDGRRTFYGDSVK,GRAALTFIS,n.d. n.d. n.d. n.d. n.d. n.d.,n.d.,0/18
GFTLNEYGIS,VIYSDGRRTFYTDSVK,GRFAGIFDS,n.d. n.d. 1.17 n.d. n.d. n.d.,1.17,0/18
GFNLNSYGNS,VIYSDGRRTFPDDSSK,GQYAGTFDS,n.d. n.d. n.d. n.d. n.d. n.d.,n.d.,0/18
GFTLNSYGIS,VIYAAGRRTFYGDSVK,GRAAGTNKS,n.d. n.d. n.d. n.d. n.d. n.d.,n.d.,0/18
GKTLNEYGIS,VIYSDGVRTFYRDSVK,GRFAGTPDS,n.d. n.d. n.d. n.d. n.d. 1.99,1.99,1/18 (1.42)
GFTLHSLGIS,VIAADGRWTFYGDSVK,GRAAGTNKS,n.d. n.d. n.d. n.d. n.d. n.d.,n.d.,0/18
GYTLNSYGIS,VIYSDGHRTFVSDSVK,GRAGGTFDS,n.d. n.d. n.d. n.d. n.d. n.d.,n.d.,0/18
GFTCNSYGIS,VIYADGRRTFYNDSVK,GRAAGTNKS,n.d. n.d. n.d. n.d. n.d. n.d.,n.d.,0/18
GFTLNSYGIS,VIYSDGRRTFYDDSVK,GQLATTFDS,-0.07 0.35 -0.25 -1.17 0.11 -0.05,-0.18,0/18
GFTLNEYGIS,VIYSDGNRTFYGDSVK,GRAAVTFGQ,n.d. n.d. n.d. n.d. n.d. n.d.,n.d.,0/18

The first 6 entries again:

{"CDR-H1": "GFTLDSYEIS", "CDR-H2": "VIYSDGRRTFYGDSVK", "CDR-H3": "GRAAGTALH", "log10 Kd (nM) by replicate": "n.d. n.d. n.d. n.d. n.d. n.d.", "mean log10 Kd (nM)": "n.d.", "signal with controls": "0/18"}
{"CDR-H1": "GFTCNEEGIS", "CDR-H2": "VIYSDGRRRKYGDSVK", "CDR-H3": "GRAAVTFDQ", "log10 Kd (nM) by replicate": "n.d. n.d. n.d. n.d. n.d. n.d.", "mean log10 Kd (nM)": "n.d.", "signal with controls": "0/18"}
{"CDR-H1": "GFTLDSYGIW", "CDR-H2": "VICSDGRRTFYGDSVK", "CDR-H3": "GRAAGTAAS", "log10 Kd (nM) by replicate": "2.43 n.d. n.d. 4.53 n.d. n.d.", "mean log10 Kd (nM)": "3.48", "signal with controls": "0/18"}
{"CDR-H1": "GFTLNQYGIS", "CDR-H2": "VIYSDGRRTFYSRSVK", "CDR-H3": "GRAAGFFDK", "log10 Kd (nM) by replicate": "n.d. n.d. n.d. n.d. n.d. n.d.", "mean log10 Kd (nM)": "n.d.", "signal with controls": "0/18"}
{"CDR-H1": "GFQLNSWQIS", "CDR-H2": "VIYADGRRTFYGDSVK", "CDR-H3": "GRGAGTNKS", "log10 Kd (nM) by replicate": "n.d. n.d. n.d. n.d. n.d. n.d.", "mean log10 Kd (nM)": "n.d.", "signal with controls": "0/18"}
{"CDR-H1": "GFTLNEYGIS", "CDR-H2": "VIYSDGRRTFQGDSAK", "CDR-H3": "GRAAVTFDQ", "log10 Kd (nM) by replicate": "n.d. n.d. n.d. n.d. n.d. n.d.", "mean log10 Kd (nM)": "n.d.", "signal with controls": "0/18"}

From the AlphaSeq antibody data of Li et al. 2023 (doi:10.1038/s41467-023-39022-2), copy in the FLAb collection.